Assay results as given in publication PMC6130943, “Cytochrome P450 and O-methyltransferase catalyze the final steps in the biosynthesis of the anti-addictive alkaloid ibogaine from Tabernanthe iboga” (The Journal of Biological Chemistry, 2018).

Tested on: [H][C@@]12C[C@H](CC)[C@]3([H])N(CCc4c([nH]c5ccccc45)[C@]3([H])C1)C2
Assay: cells, lysate or membranes
Details: NADPH, HEPES, pH 8 (relative-rate assays adjusted to optimum), 30 °C, 25 min, Artemisia annua P450 reductase co-expressed

Substance: I10H (ibogamine-10-hydroxylase; P450 candidate 3) (Tabernanthe iboga)
- Km: 11.4 ± 1.87 µM
